Assay results from ChEMBL document CHEMBL5036301, “Heteroaryl ether analogues of an antileishmanial 7-substituted 2-nitroimidazooxazine lead afford attenuated hERG risk: In vitro and in vivo appraisal” (Eur J Med Chem, 2021).

System: Leishmania donovani
Experiment: Antileishmanial activity against Leishmania donovani amastigotes infected in BALB/C mouse assessed as reduction in parasite burden in liver tissue at 3.13 mg/kg, po administered once per day for 5 days relative to control
Format: functional
Conditions: 120 h, read-out: INH

## CC1(COc2ccc(OC(F)(F)F)cc2)CCn2cc([N+](=O)[O-])nc2O1 (stereo unspecified)
  inhibition in vivo at 3.13 mg/kg: 25%
